Activity data for one molecule are collected here from patent publication US5441941A, “1,2-dihydroellipticines with activity against CNS specific cancer” (The United States of America as represented by the …, priority 1993, dated 1995).

This experiment concerns DMS 114. As to the kind of experiment: cells. The note with it: Homo sapiens, DMS-114, read-out: Percent Growth.

Turning to `COc1ccc2[nH]c3c(C)c4c(c(C)c3c2c1)CN(C)C=C4` [Formula VII], the activity at 0.01 µM is 79%.
